Test system: HSNECs
Experiment: Ciliary beat frequency analysis
Format: cell-based, human
Settings: azithromycin 30 μg/ml, ciprofloxacin 0.5 μg/ml, apical surface
Procedure: After applying 100 μL of sterilized PBS as control or PBS containing drug to the apical surface of the cells, the motion images were acquired for 30 minutes. Under each condition, image acquisition was performed using a Basler area scan high-speed monochromatic digital video camera (Basler AG, Ahrensburg, Germany) at a sampling rate of 100 frames per second. The Sisson-Ammons Video Analysis (SAVA) system was used to acquire CBF. Baseline CBF recording was conducted in the previously described manner, and each analysis of CBF was normalized to fold-change over baseline CBF Hz (treatment/baseline).^28

O=C(O)c1cn(C2CC2)c2cc(N3CCNCC3)c(F)cc2c1=O [ciprofloxacin]
CBF fold changes (treatment/baseline): 1.41+/−0.32
